Data as given in patent US7759499B2, “Compounds as inhibitors of hepatitis C virus NS3 serine protease” (Schering Corporation, priority 2004, dated 2010).

Sequences of proteins named here, by UniProt entry; tags and fusion partners are left off. Residues count along the entry.
UniProt P27958, 1027-1657: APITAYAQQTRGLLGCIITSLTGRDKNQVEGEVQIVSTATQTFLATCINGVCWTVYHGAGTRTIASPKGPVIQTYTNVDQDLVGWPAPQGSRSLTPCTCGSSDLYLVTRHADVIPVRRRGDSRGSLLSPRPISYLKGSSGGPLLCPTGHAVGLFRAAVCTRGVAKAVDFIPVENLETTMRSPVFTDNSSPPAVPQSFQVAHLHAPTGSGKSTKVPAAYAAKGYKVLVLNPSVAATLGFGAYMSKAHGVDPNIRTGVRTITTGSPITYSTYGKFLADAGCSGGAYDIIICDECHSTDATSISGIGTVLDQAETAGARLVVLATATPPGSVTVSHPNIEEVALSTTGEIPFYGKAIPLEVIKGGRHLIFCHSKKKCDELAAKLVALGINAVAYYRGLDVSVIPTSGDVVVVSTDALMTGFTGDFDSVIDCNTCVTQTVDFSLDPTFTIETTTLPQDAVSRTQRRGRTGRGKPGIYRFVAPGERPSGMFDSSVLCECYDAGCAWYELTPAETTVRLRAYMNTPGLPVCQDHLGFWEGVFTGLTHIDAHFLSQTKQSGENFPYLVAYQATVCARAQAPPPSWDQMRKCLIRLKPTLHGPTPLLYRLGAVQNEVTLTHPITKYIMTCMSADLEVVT
UniProt P27958, 1658-1711: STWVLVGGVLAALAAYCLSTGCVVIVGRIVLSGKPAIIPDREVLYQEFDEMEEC

Each compound was assayed against Recombinant heterodimeric HCV NS3/NS4A protease (strain 1a) (Hepatitis C virus genotype 1a, UniProt P27958) (assay: Spectrophotometric assay for HCV protease inhibitory activity). Conditions: Table 5A, range.
Type: biochemical

| Compound | pKi |
| --- | --- |
| C=CCNC(=O)C(=O)C(CCCC)NC(=O)[C@@H]1[C@@H]2[C@H](CN1C(=O)[C@@H](NC(=O)N[C@H](CN(C)S(=O)(=O)c1cccnc1)C(C)(C)C)C1(C)CCCCC1)C2(C)C (stereo partly drawn) [Compound 11405] | ≥ 7.12 |
| C=CCNC(=O)C(=O)C(CCC)NC(=O)[C@@H]1[C@@H]2[C@H](CN1C(=O)[C@@H](NC(=O)N[C@H](CN(C)S(=O)(=O)c1cccnc1)C(C)(C)C)C(C)(C)C)C2(C)C (stereo partly drawn) [Compound 11406] | ≥ 7.12 |
| C=CCNC(=O)C(=O)C(CC1CC1)NC(=O)[C@@H]1[C@@H]2[C@H](CN1C(=O)[C@@H](NC(=O)N[C@H](CN(C)S(=O)(=O)c1cccnc1)C(C)(C)C)C(C)(C)C)C2(C)C (stereo partly drawn) [Compound 11407] | ≥ 7.12 |
| C=CCNC(=O)C(=O)C(CC1CCC1)NC(=O)[C@@H]1[C@@H]2[C@H](CN1C(=O)[C@@H](NC(=O)N[C@H](CN(C)S(=O)(=O)c1cccnc1)C(C)(C)C)C1(C)CCCCC1)C2(C)C (stereo partly drawn) [Compound 11408] | ≥ 7.12 |
| C=CCNC(=O)C(=O)C(CC1CC1)NC(=O)[C@@H]1[C@@H]2[C@H](CN1C(=O)[C@@H](NC(=O)N[C@H](CN(C)S(=O)(=O)c1cccnc1)C(C)(C)C)C1(C)CCCCC1)C2(C)C (stereo partly drawn) [Compound 11409] | ≥ 7.12 |
| C=CCNC(=O)C(=O)C(CCC)NC(=O)[C@@H]1[C@@H]2[C@H](CN1C(=O)[C@@H](NC(=O)N[C@H](CN(C)S(=O)(=O)c1cccnc1)C(C)(C)C)C1(C)CCCCC1)C2(C)C (stereo partly drawn) [Compound 11410] | ≥ 7.12 |
| CCCC(NC(=O)[C@@H]1[C@@H]2[C@H](CN1C(=O)[C@@H](NC(=O)N[C@H](CN(C)S(=O)(=O)c1cccnc1)C(C)(C)C)C1(C)CCCCC1)C2(C)C)C(=O)C(=O)NC1CC1 (stereo partly drawn) [Compound 11411] | ≥ 7.12 |
| CCS(=O)(=O)N(C)C[C@@H](NC(=O)N[C@H](C(=O)N1C[C@H]2[C@@H]([C@H]1C(=O)NC(CCC(F)(F)F)C(=O)C(=O)NC1CC1)C2(C)C)C1Cc2ccccc2C1)C(C)(C)C (stereo partly drawn) [Compound 11412] | ≥ 7.12 |
| CCN(C[C@@H](NC(=O)N[C@H](C(=O)N1C[C@H]2[C@@H]([C@H]1C(=O)NC(CC1CC1)C(=O)C(=O)NC1CC1)C2(C)C)C1Cc2ccccc2C1)C(C)(C)C)S(=O)(=O)CC (stereo partly drawn) [Compound 11413] | ≥ 7.12 |
| CCN(C[C@@H](NC(=O)N[C@H](C(=O)N1C[C@H]2[C@@H]([C@H]1C(=O)NC(CCC(F)(F)F)C(=O)C(=O)NC1CC1)C2(C)C)C1Cc2ccccc2C1)C(C)(C)C)S(=O)(=O)CC (stereo partly drawn) [Compound 11414] | ≥ 7.12 |
| CCS(=O)(=O)N(C)C[C@@H](NC(=O)N[C@H](C(=O)N1C[C@H]2[C@@H]([C@H]1C(=O)NC(CC1CC1)C(=O)C(=O)NC1CC1)C2(C)C)C1Cc2ccccc2C1)C(C)(C)C (stereo partly drawn) [Compound 11415] | ≥ 7.12 |
| CCCC(NC(=O)[C@@H]1[C@@H]2[C@H](CN1C(=O)[C@@H](NC(=O)N[C@H](CN(CC)S(=O)(=O)CC)C(C)(C)C)C1Cc3ccccc3C1)C2(C)C)C(=O)C(=O)NC1CC1 (stereo partly drawn) [Compound 11416] | ≥ 7.12 |
| C=CCNC(=O)C(=O)C(CCC1CC1)NC(=O)[C@@H]1[C@@H]2[C@H](CN1C(=O)[C@@H](NC(=O)N[C@H](CN(C)S(=O)(=O)CC)C(C)(C)C)C1Cc3ccccc3C1)C2(C)C (stereo partly drawn) [Compound 11417] | ≥ 7.12 |
| CCCCC(NC(=O)[C@@H]1[C@@H]2[C@H](CN1C(=O)[C@@H](NC(=O)N[C@H](CN(C)S(=O)(=O)CC)C(C)(C)C)C1Cc3ccccc3C1)C2(C)C)C(=O)C(=O)NCc1nccs1 (stereo partly drawn) [Compound 11418] | ≥ 7.12 |
| CCS(=O)(=O)N(C)C[C@@H](NC(=O)N[C@H](C(=O)N1C[C@H]2[C@@H]([C@H]1C(=O)NC(CC1CC1)C(=O)C(=O)NCc1nccs1)C2(C)C)C1Cc2ccccc2C1)C(C)(C)C (stereo partly drawn) [Compound 11419] | ≥ 7.12 |
| CCCC(NC(=O)[C@@H]1[C@@H]2[C@H](CN1C(=O)[C@@H](NC(=O)N[C@H](CN(C)S(=O)(=O)CC)C(C)(C)C)C1Cc3ccccc3C1)C2(C)C)C(=O)C(=O)NCc1nccs1 (stereo partly drawn) [Compound 11420] | ≥ 7.12 |
| CCS(=O)(=O)N(C)C[C@@H](NC(=O)N[C@H](C(=O)N1C[C@H]2[C@@H]([C@H]1C(=O)NC(CCC1CC1)C(=O)C(=O)NC1CC1)C2(C)C)C1Cc2ccccc2C1)C(C)(C)C (stereo partly drawn) [Compound 11421] | ≥ 7.12 |
| C=CCNC(=O)C(=O)C(CCCC)NC(=O)[C@@H]1[C@@H]2[C@H](CN1C(=O)[C@@H](NC(=O)N[C@H](CN(C)S(=O)(=O)CC)C1(C)CCCCC1)C1Cc3ccccc3C1)C2(C)C (stereo partly drawn) [Compound 11422] | ≥ 7.12 |
| CCCCC(NC(=O)[C@@H]1[C@@H]2[C@H](CN1C(=O)[C@@H](NC(=O)N[C@H](CN(C)S(=O)(=O)CC)C1(C)CCCCC1)C1Cc3ccccc3C1)C2(C)C)C(=O)C(=O)NCC (stereo partly drawn) [Compound 11423] | ≥ 7.12 |
| CCCCC(NC(=O)[C@@H]1[C@@H]2[C@H](CN1C(=O)[C@@H](NC(=O)N[C@H](CN(C)S(=O)(=O)CC)C1(C)CCCCC1)C1Cc3ccccc3C1)C2(C)C)C(=O)C(=O)NC1CC1 (stereo partly drawn) [Compound 11424] | ≥ 7.12 |
| C=CCNC(=O)C(=O)C(CCCC)NC(=O)[C@@H]1[C@@H]2[C@H](CN1C(=O)[C@@H](NC(=O)N[C@H](CN(C)S(=O)(=O)CC)C(C)(C)C)C1(C)Cc3ccccc3C1)C2(C)C (stereo partly drawn) [Compound 11425] | ≥ 7.12 |
| CCCCC(NC(=O)[C@@H]1[C@@H]2[C@H](CN1C(=O)[C@@H](NC(=O)N[C@H](CN(C)S(=O)(=O)CC)C(C)(C)C)C1(C)Cc3ccccc3C1)C2(C)C)C(=O)C(=O)NC1CC1 (stereo partly drawn) [Compound 11426] | ≥ 7.12 |

Same assay, conditions: Table 6

| Compound | pKi |
| --- | --- |
| C=CCNC(=O)C(=O)C(CCCC)NC(=O)[C@@H]1[C@@H]2[C@H](CN1C(=O)[C@@H](NC(=O)N[C@H](CN(C)S(=O)(=O)c1cccnc1)C(C)(C)C)C1(C)CCCCC1)C2(C)C (stereo partly drawn) [Compound 11405] | 8.40 |
| C=CCNC(=O)C(=O)C(CCC)NC(=O)[C@@H]1[C@@H]2[C@H](CN1C(=O)[C@@H](NC(=O)N[C@H](CN(C)S(=O)(=O)c1cccnc1)C(C)(C)C)C1(C)CCCCC1)C2(C)C (stereo partly drawn) [Compound 11410] | 8.05 |
| CCCC(NC(=O)[C@@H]1[C@@H]2[C@H](CN1C(=O)[C@@H](NC(=O)N[C@H](CN(C)S(=O)(=O)c1cccnc1)C(C)(C)C)C1(C)CCCCC1)C2(C)C)C(=O)C(=O)NC1CC1 (stereo partly drawn) [Compound 11411] | 8.30 |
| CCS(=O)(=O)N(C)C[C@@H](NC(=O)N[C@H](C(=O)N1C[C@H]2[C@@H]([C@H]1C(=O)NC(CCC(F)(F)F)C(=O)C(=O)NC1CC1)C2(C)C)C1Cc2ccccc2C1)C(C)(C)C (stereo partly drawn) [Compound 11412] | 8.15 |
| C=CCNC(=O)C(=O)C(CCC1CC1)NC(=O)[C@@H]1[C@@H]2[C@H](CN1C(=O)[C@@H](NC(=O)N[C@H](CN(C)S(=O)(=O)CC)C(C)(C)C)C1Cc3ccccc3C1)C2(C)C (stereo partly drawn) [Compound 11417] | 8.22 |
| CCCCC(NC(=O)[C@@H]1[C@@H]2[C@H](CN1C(=O)[C@@H](NC(=O)N[C@H](CN(C)S(=O)(=O)CC)C(C)(C)C)C1Cc3ccccc3C1)C2(C)C)C(=O)C(=O)NCc1nccs1 (stereo partly drawn) [Compound 11418] | 8.15 |
| CCCC(NC(=O)[C@@H]1[C@@H]2[C@H](CN1C(=O)[C@@H](NC(=O)N[C@H](CN(C)S(=O)(=O)CC)C(C)(C)C)C1Cc3ccccc3C1)C2(C)C)C(=O)C(=O)NCc1nccs1 (stereo partly drawn) [Compound 11420] | 8.10 |
| CCS(=O)(=O)N(C)C[C@@H](NC(=O)N[C@H](C(=O)N1C[C@H]2[C@@H]([C@H]1C(=O)NC(CCC1CC1)C(=O)C(=O)NC1CC1)C2(C)C)C1Cc2ccccc2C1)C(C)(C)C (stereo partly drawn) [Compound 11421] | 8.15 |

pKi: −log10 of the molar value.
